# Tested on: CD4^+ T-cell (CEM)
# Assay: Cytotoxicity: inhibition of CD4+ T-cell (CEM) proliferation
# Details: ratio between cell toxicity (CC50) and EC50 CEM/TK-
# Experimental: In addition, a selectivity index (SI) was determined. The selectivity index is the ratio between cell toxicity and […], the ratio between cell toxicity (see Table 4) and EC50 CEM/TK^- (see right column of Table 3).
# Table 4: Cytotoxicity (CC50 [µM]) and selectivity index (SI) of tested prodrug compounds.
smiles,measurement,value
"Cc1cn([C@H]2C[C@H](F)[C@@H](CO)O2)c(=O)[nH]c1=O [FLT, alovudine, reference compound]",Selectivity index (SI),>1

# Source: EP4356928A1, “NUCLEOSIDE DIPHOSPHATE OR DIPHOSPHONATE PRODRUGS, OR NUCLEOSIDE ANALOGUE DIPHOSPHATE OR DIPHOSPHONATE PRODRUGS” (Universität Hamburg, priority 2022, dated 2024)
